According to PubChem BioAssay AID1777 (Sanford-Burnham Center for Chemical Genomics, 2009):
The list shows a part of the results. Measured potencies and affinities stand elsewhere. Activity calls are given as the source filed them. Rule as the data show it: active = activation above about 50% (passing the limit was not always enough); inactive = the rest.

Chains of the proteins cited; added tags and fusions are not shown. Lines headed by an entry give the natural chain unless they say otherwise; changes in a name come on top.
UniProt P41145: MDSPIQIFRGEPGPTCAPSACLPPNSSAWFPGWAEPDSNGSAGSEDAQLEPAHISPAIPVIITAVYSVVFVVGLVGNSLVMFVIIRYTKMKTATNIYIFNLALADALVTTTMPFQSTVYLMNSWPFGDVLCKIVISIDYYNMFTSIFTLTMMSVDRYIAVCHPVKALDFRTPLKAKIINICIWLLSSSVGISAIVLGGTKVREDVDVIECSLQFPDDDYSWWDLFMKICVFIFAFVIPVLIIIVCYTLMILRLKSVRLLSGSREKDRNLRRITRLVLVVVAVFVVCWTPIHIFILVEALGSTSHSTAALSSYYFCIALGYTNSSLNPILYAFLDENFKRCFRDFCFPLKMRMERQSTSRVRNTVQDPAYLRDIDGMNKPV

Each compound was assayed against Kappa-type opioid receptor (Homo sapiens) (UniProt P41145) (assay: kappa opioid receptor activators – cell-based, luminescence, uHTS, primary screen (AID 1777)). Details: KOR beta-arrestin recruitment, at 10 µM, hits give high values.

| Compound | activation |
| --- | --- |
| O=C(Cn1c(NCCO)nc2ccccc21)NCCc1ccc(F)cc1 | inactive: 3.3% |
| CCN(CC)CCn1c(NCc2cccc(OC)c2)nc2ccccc21 | inactive: 2.9% |
| O=C(Cn1c(-c2cscn2)nc2ccccc21)Nc1ccc2ccccc2c1 | inactive: 5% |
| CCC1=CC2Cc3nc4ccc(Cl)cc4c(N)c3C(C1)C2 (configuration not stated) | inactive: -4% |
| Cn1c(=O)c2c(ncn2CC(=O)N2CCCc3ccccc32)n(C)c1=O | inactive: 1.1% |
| O=P1(Nc2ccccn2)COc2ccccc2OC1 | inactive: -3% |
| COc1cccc(CNC(=O)CCCCCNC(=O)N2CCn3c2nc2ccccc23)c1 | inactive: -1.6% |
| Cn1c(=O)oc2cc(S(=O)(=O)N3CCCC(C(=O)N4CCn5c4nc4ccccc45)C3)ccc21 (configuration not stated) | inactive: -3.3% |
| CC(C)NC(=O)CSc1nc2ccccc2n1CC(=O)N1CCc2ccccc21 | inactive: 4.7% |
| CC(c1ccccc1)N1CCn2c(nc3cc(NC(=O)NC4CCCCC4)ccc32)C1 (configuration not stated) | inactive: -6.8% |
| CC(C)C[C@H](NC(=O)N1CCn2c1nc1ccccc12)C(=O)N[C@@H](C(=O)O)c1ccccc1 | inactive: -4% |
| CN(C)C1(c2nnnn2CCOC(=O)Nc2ccc(Cl)cc2)CCCCC1 | inactive: 0.1% |
| CC1c2nc3ccccc3n2C(CC(=O)NC2CC2)C(=O)N1Cc1ccccc1 (configuration not stated) | inactive: -6.2% |
| CNC(=O)Cn1c(=O)n(C)c2ccccc21 | inactive: -1.5% |
| CCN1C(=O)CC(N2CCC(Nc3ccc(F)cc3)CC2)C1=O (configuration not stated) | inactive: -1.5% |
| CCOP(=O)(Nc1ccc(C)cn1)OCC | inactive: 3.5% |
| CCOc1ccc(N2CCn3c2nc2c3c(=O)n(CCc3ccccc3)c(=O)n2C)cc1 | inactive: 0.9% |
| Cc1ccc(-c2nc(N(C)C3CCN(C)CC3)c3ccccc3n2)cc1 | inactive: -6.5% |
| Cc1ccc(SCc2nc3ccccc3n2CC(=O)Nc2ccc(Cl)cc2)cc1 | inactive: 7% |
| CCCCNc1nc2ccccc2n1CC(=O)Nc1ccc2c(c1)OCCO2 | inactive: -0.5% |
| CN1CCC2(CC1)Nc1nc(SCc3ccc(Cl)cc3)nn1C1=C2CN(C)CC1 | inactive: -5.8% |
| Cc1ccc2c(c1)C1CN(C)CCC1N2C(=S)Nc1cccnc1 (configuration not stated) | inactive: 1.1% |
| FC(F)(F)c1cccc(-n2nnnc2C2(N3CCOCC3)CCCCC2)c1 | inactive: 0.2% |

| Compound | activation |
| --- | --- |
| N#CCC(=O)N/N=C\c1ccc(OC/C=C/c2ccccc2)cc1 | inactive: -3.8% |
| CC(C)NC(=O)Cn1c(SCC(=O)N2CCc3ccccc3C2)nc2ccccc21 | inactive: -5.4% |
| Cc1cc(N2C(=O)CC(N3CCC(n4c(=O)[nH]c5ccccc54)CC3)C2=O)no1 (configuration not stated) | inactive: 1.9% |
| Cc1ccc(CNC(=O)CCCCCNC(=O)N2CCn3c2nc2ccccc23)cc1 | inactive: -6.6% |
| Brc1cccc(CNc2nc3ccccc3n2CCN2CCOCC2)c1 | inactive: 1.6% |
| S=C(Nc1ccccc1)N1CCn2c(nc3ccccc32)C1 | inactive: -4% |
| O=C(Cn1c(CSc2ccccc2)nc2ccccc21)Nc1ccccc1 | inactive: 3.6% |
| O=C(NCCn1c(C(F)(F)F)nc2cc(C(F)(F)F)ccc21)[C@H]1CCCN1c1nc(CN2CCCCC2)cs1 | inactive: -0.4% |
| Cc1cc(C)cc(NC(=O)Cn2c(-c3ccccc3Cl)nc3ccccc32)c1 | inactive: -3.1% |
| Cn1c(=O)c2ncn(CC(=O)Nc3cc(C(F)(F)F)ccc3N3CCOCC3)c2n(C)c1=O | inactive: 3.8% |
| CCCC(=O)Nc1nnc(/C=C/c2ccccc2)s1 | inactive: -1.1% |
| CC(C)(C)C(=O)NC(Sc1ncccn1)C(Cl)(Cl)Cl (configuration not stated) | inactive: -2.4% |
| Cn1c(=O)c2c(ncn2CC(=O)Nc2nnc(Cc3ccccc3)s2)n(C)c1=O | inactive: 3.8% |
| COc1ccc(OCC(O)Cn2c(=N)n(CCN3CCOCC3)c3ccccc32)cc1 (configuration not stated) | inactive: -3.8% |
| O=C(Cn1c(C(F)(F)F)nc2ccccc21)Nc1ccccc1C(=O)O | inactive: -1.6% |
| CN(C)CCn1c(NC(=O)c2ccc(Cl)cc2)nc2ccccc21 | inactive: 4.7% |
| Clc1n[nH]nc1-c1nn[nH][15n]1 | inactive: -2.4% |
| COc1ccc(/C=N/NC(=O)Cn2c(Cc3ccc(OC)c(OC)c3)nc3ccccc32)cc1OC | inactive: 3.9% |
| Cc1ccc(CSc2nc3ccncc3n2CC(=O)Nc2cc(C)cc(C)c2)cc1 | inactive: 11.6% |
| NNC(=O)Cn1c(-c2nonc2N)nc2ccccc21 | inactive: -5.5% |
| Cn1c(=O)c2c(nc(CN3CCOCC3)n2CCN2CCOCC2)n(C)c1=O | inactive: 7.2% |
| CC1Cc2ccccc2N1C(=O)Cn1cnc2ccccc21 (configuration not stated) | inactive: -1.6% |
| O=S(=O)(Nc1ccc2c(c1)nc1n2CCN(Cc2ccccc2)C1)c1ccc(F)cc1 | inactive: 7.2% |

| Compound | activation |
| --- | --- |
| COc1cccc(CNc2nc3ccccc3n2CCN2CCCCC2)c1OC | inactive: 4% |
| O=C(OC1CN2CCC1CC2)c1cccc([N+](=O)[O-])c1 (configuration not stated) | inactive: -0.1% |
| CCC(C)[C@H](NC(=O)N1CCn2c1nc1ccccc12)C(=O)NCC1CCCO1 (some centres not stated) | inactive: -1.6% |
| CCCCOc1ccccc1NC(=O)Cn1c(-c2nonc2N)nc2ccccc21 | inactive: -2.2% |
| CCc1cccc(C)c1N(C(=O)Cn1c(=O)[nH]c2ccccc21)C(C)COC (configuration not stated) | inactive: -2.1% |
| COc1ccc(CCNC(=O)[C@H](CC(C)C)NC(=O)N2CCn3c2nc2ccccc23)cc1OC | inactive: -8.8% |
| O=C1Cn2c(nc3ccccc32)-c2ccccc2N1 | inactive: 4% |
| CCC(NC(=O)Cn1cnc2c(=O)n(C)c(=O)n(C)c21)c1ccccc1 (configuration not stated) | inactive: 3.9% |
| CCN(CC)C(=O)Cn1cnc2c1c(=O)n(C)c(=O)n2C | inactive: -3.4% |
| CC(C)N(C(=O)Cn1c(Cl)nc2ccccc21)C(C)C | inactive: -4.5% |
| CCOC(=O)c1ccc(NC(=O)C(C)(CCl)SC)cc1 (configuration not stated) | inactive: 9.8% |
| O=C(Cn1c(-c2cscn2)nc2ccccc21)Nc1cc(F)ccc1F | inactive: -0.4% |
| Cc1ccc2c(c1)C1CN(C)CCC1N2C(=O)COc1ccc(S(=O)(=O)N2CCOCC2)cc1 (configuration not stated) | inactive: 3.9% |
| Cc1nc2ccccc2n1CC(=O)N/N=C\c1ccccn1 | inactive: 7.4% |
| CC(C)NC(=O)Cn1c(SCC(=O)N2CCCc3ccccc32)nc2ccccc21 | inactive: 0.4% |
| Cc1ccc(NC(=O)CCC(=O)N/N=C/C=C/c2ccccc2)cc1 | inactive: 2% |
| CCc1ccc(NC(=O)Cn2c(SC)nc3ccccc32)cc1 | inactive: -5.2% |
| CC1CC(C)CN(C(=O)Cn2c(SCC(=O)N3CCc4ccccc4C3)nc3ccccc32)C1 (configuration not stated) | inactive: -3.6% |
| CCC(C)N(CC(C)C)C(=S)SC(NC(C)=O)C(Cl)(Cl)Cl (configuration not stated) | inactive: 3.8% |
| CCN1C(=O)C2(Nc3ccccc3-c3nc4ccccc4n32)c2cc(OC)ccc21 (configuration not stated) | inactive: -2% |
| COc1ccc(N2C(=O)CC(n3cnc4ccccc43)C2=O)cc1 (configuration not stated) | inactive: 1.3% |
| COc1ccccc1NC(=O)Cn1cnc2c1c(=O)n(C)c(=O)n2C | inactive: 0.4% |
| Cc1ccc2c(c1)[C@@H]1CN(C)CC[C@@H]1N2C(=O)Nc1cccc(C(F)(F)F)c1 | inactive: 0.9% |

| Compound | activation |
| --- | --- |
| CCOC(=O)c1ccccc1NC(=O)CSc1nc2ccccc2n1CC(=O)N1CCCC1 | inactive: -6.6% |
| Cc1ccc(-c2csc(NC(=O)Cn3cnc4c3c(=O)n(C)c(=O)n4C)n2)cc1C | inactive: 6.5% |
| CSc1nc2ccccc2n1CC(=O)Nc1ccccc1 | inactive: -5.9% |
| Cc1nc2ccccc2n1CCN1CCOCC1 | inactive: 2.8% |
| O=C(Nc1ccc2c(c1)nc1n2CCN(C2CCCCC2)C1)NC1CCCCC1 | inactive: 2.8% |
| CN1C(=O)C2(Nc3ccccc3-c3nc4ccccc4n32)c2ccccc21 (configuration not stated) | inactive: -1.5% |
| Cc1ccc2c(c1)C1CN(C)CCC1N2C(=O)Cc1cccs1 (configuration not stated) | inactive: 6% |
| Cc1ccc(NC(=O)Cn2cnc3ccccc32)cc1C | inactive: -1.8% |
| CCC(C)[C@H](NC(=O)N1CCn2c1nc1ccccc12)C(=O)NCc1ccccc1 (some centres not stated) | inactive: -6.3% |
| O=C(Nc1ccccc1C(F)(F)F)N1CCC(n2c(=O)[nH]c3ccccc32)CC1 | inactive: 5.2% |
| CC(C)[C@H](NC(=O)N1CCn2c1nc1ccccc12)C(=O)N[C@H](Cc1ccccc1)C(=O)O | inactive: 2.1% |
| N#CCC(=O)N/N=C\c1cccc(OC/C=C/c2ccccc2)c1 | inactive: 5.2% |
| O=C(C1CCN(S(=O)(=O)c2cccc3nsnc23)CC1)N1CCn2c1nc1ccccc12 | inactive: -15.8% |
| N=c1n(CCN2CCCCC2)c2ccccc2n1CC(=O)c1cccs1 | inactive: 2.8% |
| Cn1c(=O)c2c(ncn2CC(=O)N/N=C/C=C\c2ccccc2[N+](=O)[O-])n(C)c1=O | inactive: 0.1% |
| CN(C)CCn1c(NCc2ccc3c(c2)OCO3)nc2ccccc21 | inactive: 2% |
| COP1(=S)c2c(C)nn(CCC#N)c2N=C(c2ccc(F)cc2)N1C (configuration not stated) | inactive: 1.8% |
| Cc1ccc(C)c(S(=O)(=O)N2CCN(C(=O)Cn3cnc4c3c(=O)n(C)c(=O)n4C)CC2)c1 | inactive: -3.9% |
| C=CCn1c(=O)c2c(nc3n2CCN3c2cccc(Cl)c2C)n(C)c1=O | inactive: -1.1% |
| CC(C)NC(=O)Cn1c(SCC(=O)NC2CCCC2)nc2ccccc21 | inactive: -0.3% |
| COc1ccc2c(c1)C1(Nc3ccccc3-c3nc4ccccc4n31)C(=O)N2C (configuration not stated) | inactive: 1.3% |
| COc1cccc(NC(=O)[C@H](CC(C)C)NC(=O)N2CCn3c2nc2ccccc23)c1 | inactive: -1.5% |
| CC(C)[C@H](NC(=O)N1CCn2c1nc1ccccc12)C(=O)NC1CC1 | inactive: 0% |
